# Literature values as cited in patent US20220194940A1, “HETEROCYCLIC INHIBITORS OF TYROSINE KINASE” (Board of Regents, The University of Texas System, priority 2019, published 2022).
# Test system: HER2 exon 20 insertions
# Conditions: by itself; background statement; cited from earlier work
substance,measurement,value
trastuzumab,efficacy against HER2 exon 20 insertions,ineffective by itself
